Results reported in ChEMBL document CHEMBL3886296, “Reactivators of organophosphorous inhibited acetylcholinesterase” (2015).

Amino acid sequences for entries named in this document (tags omitted). Residues count along the entry.
UniProt P22303, 32-614 limits assumed: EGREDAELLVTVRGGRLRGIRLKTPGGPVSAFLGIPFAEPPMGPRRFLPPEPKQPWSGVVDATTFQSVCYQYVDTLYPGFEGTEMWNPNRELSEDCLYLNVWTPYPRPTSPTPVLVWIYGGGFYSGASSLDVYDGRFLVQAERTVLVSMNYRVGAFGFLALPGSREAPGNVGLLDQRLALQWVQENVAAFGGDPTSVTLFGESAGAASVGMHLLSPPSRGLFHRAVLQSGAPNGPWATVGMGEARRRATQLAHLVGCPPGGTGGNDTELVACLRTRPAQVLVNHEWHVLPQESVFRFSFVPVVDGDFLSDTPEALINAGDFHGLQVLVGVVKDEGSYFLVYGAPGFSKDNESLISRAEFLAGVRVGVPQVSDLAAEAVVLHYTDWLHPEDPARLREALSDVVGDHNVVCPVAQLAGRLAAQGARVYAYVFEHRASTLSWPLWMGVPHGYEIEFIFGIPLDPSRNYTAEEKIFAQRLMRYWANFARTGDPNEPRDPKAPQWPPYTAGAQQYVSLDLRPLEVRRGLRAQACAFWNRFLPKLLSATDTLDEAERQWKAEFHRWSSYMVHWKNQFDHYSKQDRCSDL

Target: Acetylcholinesterase (Homo sapiens, UniProt P22303)
Assay: Enzyme Inhibition Assay: Accordingly Ki is for uninhibited AChE. The higher the number, the less the native enzyme is inhibited by the reactivator compound, which is what one desires to achieve: reactivation of the inhibited AChE but little inhibition of native enzyme activity.

`COc1ccc(CN2CCCCC2COc2ccc(C(=O)/C=N\O)cn2)cc1OC` (configuration not stated) gave a Ki of 233 nM.

Work on `O=C(/C=N\O)c1ccc(OCC2CCN(Cc3ccccc3)CC2)nc1` yielded a Ki of 31 nM.
